Results published in US20030203908A1, “Dihydrofolate reductase inhibitors” (priority 2000, published 2003).
Structures can show the parent of a compound that is named as a salt.

Amino acid sequences for entries named in this document (tags omitted). Residues count along the entry.
UniProt P13922, 10-228 R59C/N108S: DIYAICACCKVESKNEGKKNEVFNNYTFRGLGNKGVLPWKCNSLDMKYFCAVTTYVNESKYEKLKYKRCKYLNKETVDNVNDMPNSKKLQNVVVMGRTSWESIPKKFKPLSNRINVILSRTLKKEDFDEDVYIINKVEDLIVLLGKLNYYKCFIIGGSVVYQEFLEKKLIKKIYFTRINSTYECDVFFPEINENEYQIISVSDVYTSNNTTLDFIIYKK

Target: T1, wild-type (wt) DHFR from Plasmodium falciparum (Plasmodium falciparum, UniProt P13922, N108S/R59C)
T1 construct: The Dihydrofolate Reductase Domain of Plasmodium falciparum Thymidylate Synthase-Dihydrofolate Reductase; made in house
Test: Inhibition of wild-type pfDHFR (spectrophotometric, Ki);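 note: Affinity-purified enzyme, initial reaction rates measured across a range of inhibitor concentrations, Ki obtained by nonlinear least-squares fitting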
Assay type: biochemical
Settings: Ki(wt) nM

**Q.** Which Ki does the source give for `NC1=NC(c2ccccc2)N(c2ccc(Cl)cc2)C(N)=N1` (centres unmarked) [(Ia) R2=phenyl, 1-(4′-Chlorophenyl)-2-phenyl-4,6-diamino-1,2-dihydro-1,3,5-triazine hydrochloride] here?
**A.** 4.5 ± 0.2 nM

**Q.** `CCCOc1ccc(C2N=C(N)N=C(N)N2c2cccc(Cl)c2)cc1` (centres unmarked) [(Ib) R2=4-(n-propyloxy)phenyl] was tested. Which Ki did it give?
**A.** 3.3 ± 0.4 nM
